Measured values taken from US20250333418A1, “PURINE COMPOUNDS, COMPOSITIONS COMPRISING THEM AND USES THEREOF” (Novo Nordisk A/S, priority 2022, published 2025).

By UniProt entry, the sequences of proteins in these tests, tags left out.
UniProt P21554, whole entry: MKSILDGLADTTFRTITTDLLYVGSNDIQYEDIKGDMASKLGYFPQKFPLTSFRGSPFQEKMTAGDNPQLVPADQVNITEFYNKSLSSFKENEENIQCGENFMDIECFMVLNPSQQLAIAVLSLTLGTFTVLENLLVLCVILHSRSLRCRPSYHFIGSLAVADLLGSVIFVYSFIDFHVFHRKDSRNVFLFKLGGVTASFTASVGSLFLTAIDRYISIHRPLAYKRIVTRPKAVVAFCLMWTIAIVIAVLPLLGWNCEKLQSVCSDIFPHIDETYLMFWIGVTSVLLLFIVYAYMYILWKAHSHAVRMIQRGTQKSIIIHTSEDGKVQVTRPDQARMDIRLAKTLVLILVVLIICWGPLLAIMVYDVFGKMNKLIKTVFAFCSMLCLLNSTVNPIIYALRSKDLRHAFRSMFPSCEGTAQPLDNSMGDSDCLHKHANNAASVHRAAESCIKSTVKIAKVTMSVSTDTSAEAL

Tests used:
human CB1 receptor [1] = molecular target: T1, human CB1 receptor (Homo sapiens, UniProt P21554); experiment: bioSensAll β-arrestin2 plasma membrane translocation (+GRK2) BRET biosensor assay in HEK293 cells transfected with hCB1; test compound added before EC75-80 of agonist CP55,940 (100 nM); details: read-out: CB1 wt βarr2 IC50, βArrestin2 (+GRK2) BRET biosensor, vs CP55,940 100 nM (EC75-80)
Experimental: (§1) Using polyethylenimine (PEI) transfection agent, HEK293 cells were transfected in suspension with the human CB1 receptor and one of the following bioSensAll® assays: GAPL-Gi2, or β-arrestin plasma membrane (PM) translocation biosensor (+GRK2). Cells were directly seeded in 96-well plates immediately following transfection.
(§2) Cells were incubated with coelenterazine (luciferase substrate) and different test compounds prior to the measurement of BRET signals.
(§3) Used in this project are i) Gα plasma membrane (GAPL) biosensors and the ii) β-arrestin plasma membrane translocation biosensor.
ii) The multimolecular β-arrestin membrane recruitment biosensors allow for real-time spatio-temporal monitoring of β-arrestin 1 and β-arrestin 2 following GPCR activation. Specifically, these β-arrestin sensors were designed to detect the recruitment of proteins to the plasma membrane (β-arrestin PM) with localization to compartment resulting in an increased BRET signal.
(§4) HEK293 cells were maintained in Dulbecco's Modified Eagle Medium (DMEM) (Wisent; cat #319-030-CL: without sodium pyruvate, with 4.5 g/L glucose, without L-glutamine) supplemented with 1% penicillin-streptomycin (Wisent; cat #450-201-EL) and 2 or 10% fetal bovine serum (Wisent cat #090150).
(§5) HEK293 cells were co-transfected with hCB1 and one of the above-listed bioSensAll® assays. For each transfection condition: • the total amount of transfected DNA was kept constant at 1 μg per mL of cell culture to be transfected; whenever necessary, salmon sperm DNA (Invitrogen, cat #15632011) was used as ‘carrier’ DNA to supplement plasmid DNA (i.e., biosensor and receptor); • the PEI (polyethylenimine 25 kDa linear, PolyScience, cat #23966) to DNA ratio (ug:ug) was fixed at 3:1.
(§6) Transfections were carried out as follows: • DNA and PEI were first diluted separately in 150 mM NaCl. The volume of the diluent in each tube corresponds to 5% of the cell culture volume to be transfected. • Once DNA and PEI were diluted, the PEI-containing solution was added to the DNA solution and the DNA/PEI mixture immediately vortexed for 5 seconds. • The DNA/PEI mixture was incubated for at least 20 minutes at room temperature to allow for the formation of DNA/PEI complexes. • During the incubation, HEK293 cells were detached, counted and re-suspended in culture medium (composition specified above). • At the end of the incubation period, the DNA/PEI mixture was added to the cells. • Cells were finally distributed in 96-well plates (White Opaque 96-well/Microplates, Greiner, cat #655083 or CulturPlate-96, White Opaque 96-well Microplate, PerkinElmer, cat #6005688) at a density of 30,000 cells per well.
(§7) At 48 hours post-transfection: • Using 450-Select TS Biotek plate washer, culture medium was aspirated and replaced with 100 μL of Hank's Balanced Salt Solution buffer (HBSS) (Wisent, cat #319-067CL: without red phenol; with sodium bicarbonate, with calcium and magnesium, with HEPES) per well. • Plates were then incubated (equilibrated) at 37° C., 5% CO2 for 60 minutes. • Increasing doses of test compounds were then added to each well using the HP D300e digital dispenser (Tecan). All compounds were assayed at the following 12 concentrations (in nM) with each biosensor: 0.000, 0.013, 0.040, 0.120, 0.320, 0.960, 2.80, 8.00, 24.0, 70.0, 205 and 600. • Three to 5 minutes later, an assay-specific effective concentration (EC)75-80 of agonist CP55,940 (i.e., 0.1 nM and 100 nM for G[…]i2-GAPL or […]Arrestin2 (+GRK2) assay, respectively) was added to wells previously injected with test compound (i.e., previous step 3). […]

human CB1 receptor [2] = molecular target: T1, human CB1 receptor; experiment: bioSensAll GAPL-Gi2 BRET biosensor assay in HEK293 cells transfected with hCB1; test compound added before EC75-80 of agonist CP55,940 (0.1 nM); details: read-out: CB1 wt Gi2 IC50, vs CP55,940 0.1 nM (EC75-80)
Experimental: as §1, §2, §3
i) GAPL sensors are used to monitor the activation of heterotrimeric G proteins at the plasma membrane upon receptor stimulation. Specifically, these multimolecular BRET sensors detect the plasma membrane recruitment of proteins that interact with active Gα subunits in a G protein family-selective manner. G protein activation following receptor stimulation generally leads to an increase in the BRET signal.
as §4, §5, §6, §7

Row | Compound | IC50 (human CB1 receptor [1]) [nM] | IC50 (human CB1 receptor [2]) [nM]
1 | CN(CCO)c1nc(N[C@H]2CCOC2)c2nc(-c3ccccc3Cl)n(-c3ccc(Cl)cc3)c2n1 | 3.88 | 0.394
2 | CN(CCO)c1nc(N2CC[C@@H](CO)C2)c2nc(-c3ccccc3Cl)n(-c3ccc(Cl)cc3)c2n1 | 1.21 | 0.226
3 | CC(=O)NC1(C)CN(c2nc(OCC(C)(C)O)nc3c2nc(-c2ccccc2Cl)n3-c2ccc(Cl)cc2)C1 | 22.3 | 2.37
4 | CC(=O)NC1(C)CN(c2nc(N3CCC[C@H]3CO)nc3c2nc(-c2ccccc2Cl)n3-c2ccc(Cl)cc2)C1 | 1.27 | 0.49
5 | CC(C)(O)COc1nc(N2CCC[C@@H](C(N)=O)C2)c2nc(-c3ccccc3Cl)n(-c3ccc(Cl)cc3)c2n1 | 14.8 | 1.88
6 | CN1C[C@H](O)C[C@H]1COc1nc(N2CCC(C)(C(N)=O)CC2)c2nc(-c3ccccc3Cl)n(-c3ccc(Cl)cc3)c2n1 | 28.5 | 1.31
7 | CN1CC(F)(F)C[C@H]1COc1nc(N2CCC(C)(C(N)=O)CC2)c2nc(-c3ccccc3Cl)n(-c3ccc(Cl)cc3)c2n1 | 12.5 | 3.65
8 | CN(CCO)c1nc(N2CC[C@H](CO)C2)c2nc(-c3ccccc3Cl)n(-c3ccc(Cl)cc3)c2n1 | 3.94 | 0.645
9 | CC(C)OC1(C(N)=O)CCN(c2nc(N3CCC[C@H]3CO)nc3c2nc(-c2ccccc2Cl)n3-c2ccc(Cl)cc2)CC1 | 1.56 | 1.02
10 | OC[C@H]1CN(c2nc(N3CCC[C@H]3CO)nc3c2nc(-c2ccccc2Cl)n3-c2ccc(Cl)cc2)CCO1 | 5.27 | 0.962
11 | CC(C)(O)COc1nc(N2CCC(O)(C(N)=O)CC2)c2nc(-c3ccccc3Cl)n(-c3ccc(Cl)cc3)c2n1 | 141 | 16.8
12 | CCOC1(C(N)=O)CCN(c2nc(N3CC[C@@](C)(O)C3)nc3c2nc(-c2ccccc2Cl)n3-c2ccc(Cl)cc2)CC1 | 2.57 | 0.881
13 | CN(CCO)c1nc(N2CCO[C@@H](CO)C2)c2nc(-c3ccccc3Cl)n(-c3ccc(Cl)cc3)c2n1 | 14.3 | 0.887
14 | CN(CCO)c1nc(N(C)[C@@H]2CCOC2)c2nc(-c3ccccc3Cl)n(-c3ccc(Cl)cc3)c2n1 | 1.42 | 0.186
15 | CC(C)(O)COc1nc(N2CC[C@@](C)(O)C2)c2nc(-c3ccccc3Cl)n(-c3ccc(Cl)cc3)c2n1 | 21.6 | 3.09
16 | CN(CCO)c1nc(N[C@H]2CCS(=O)(=O)C2)c2nc(-c3ccccc3Cl)n(-c3ccc(Cl)cc3)c2n1 | 4.75 | 0.752
17 | CC(C)(O)COc1nc(N2CCC[C@H](C(N)=O)C2)c2nc(-c3ccccc3Cl)n(-c3ccc(Cl)cc3)c2n1 | 38.8 | 5.91
18 | CN1CCC[C@@H]1COc1nc(N2CCC(C)(C(N)=O)CC2)c2nc(-c3ccccc3Cl)n(-c3ccc(Cl)cc3)c2n1 | 2.76 | 0.895
19 | CN(CCO)c1nc(N[C@@H]2CCOC2)c2nc(-c3ccccc3Cl)n(-c3ccc(Cl)cc3)c2n1 | 6.02 | 0.445
20 | CC(C)Oc1nc(O[C@@H](C)CO)nc2c1nc(-c1ccccc1Cl)n2-c1ccc(Cl)cc1 | 10.3 | 1.37
21 | CN(CCO)c1nc(N[C@@H]2CCS(=O)(=O)C2)c2nc(-c3ccccc3Cl)n(-c3ccc(Cl)cc3)c2n1 | 15.8 | 1.23
